# Ab-14 heavy chain CDR variants: yeast mating affinities

Data: MIT Lincoln Laboratory AlphaSeq set, Li et al. 2023, doi:10.1038/s41467-023-39022-2, as distributed in FLAb.

The target is the same throughout: PDVDLGDISGINAS, from the HR2 region of SARS-CoV-2 spike.

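The parent was found by panning a naive human phage display library on the peptide. This is the validation round: designs drawn from the data on random variants, tested in the same kind of assay. Several design methods are mixed in this list. Affinity was read by AlphaSeq, a pooled yeast mating assay with surface-displayed partners. Mating (16 h, 30 °C) was followed by selection of diploids and sequencing of their barcodes. The ratio of observed to expected reads was calibrated, replicate by replicate, on BCL2-family standards whose Kd was known from biolayer interferometry. The assay was run in six technical replicates.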

Parent: Ab-14, a human scFv built as VH, a 15-residue (Gly4Ser)3 linker, VL. Only the CDRs of the heavy chain vary.
VH: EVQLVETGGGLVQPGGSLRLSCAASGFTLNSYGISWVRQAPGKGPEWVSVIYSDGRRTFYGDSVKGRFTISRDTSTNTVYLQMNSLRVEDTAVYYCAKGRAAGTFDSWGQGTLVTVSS
VL: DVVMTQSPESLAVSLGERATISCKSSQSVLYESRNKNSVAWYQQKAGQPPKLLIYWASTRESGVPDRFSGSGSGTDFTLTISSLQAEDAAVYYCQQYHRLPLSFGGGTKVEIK

Each variant is given by its three heavy chain CDRs, as the data file delimits them; those of the parent are GFTLNSYGIS, VIYSDGRRTFYGDSVK, GRAAGTFDS. This list holds designs with at most six substitutions. Numbers give log10(Kd / nM), so 0 is 1 nM and 3 is 1 µM. Smaller is tighter. Averages over replicates are reported, and they cover detected replicates only. "nd" means that the variant was in the library but no mating with the target was seen in any replicate; the authors take this as a sign of poor binding, and no number exists. The authors averaged sequences with at least three values out of six and counted those with two or fewer as poor binders.

Variant GFTLNSYGVS | VIYSDGRRTFYGDSVK | GTAAGTFDS showed 0.70 (1 of 6 replicates). With GFTLNDYGIS | VIYSDGRRTWYKDSVK | GRAAGTFDS the result was 0.44 (1 of 6 replicates). For GFQLNSYGIS | VIYSDGRRTHYGDSVK | GRAAGTFDS, the assay gave 1.94 (2 of 6 replicates). Variant GNTLNSYGIS | VIYSDGRRTFYLDSVK | GRSAGTFDS showed nd (0 of 6 replicates). For GFDLNSYGIS | VIYSDGRRTFYQDRVK | GEAAGTFDN, the assay gave -1.76 (3 of 6 replicates).

With GFDLNSYGIS | VIYSDGRRTFYKDSVK | GREAGTFDS the result was 1.23 (5 of 6 replicates). Variant GFSLNTYGIS | VIYSDGKRTFYGDSVK | GRTAGTFDS showed -0.37 (2 of 6 replicates). For GFNLNMYGIS | VIYSDGRRTFYGDSVK | GRTAGTFDS, the assay gave 1.02 (6 of 6 replicates). With GFTLNDYGIS | VIYSDGRRTFYTDSVK | GRAAGTFLS the result was nd (0 of 6 replicates). With GFELNSYGIS | VIYSDGRRTFYCDSVK | GQTAGTFDS the result was 0.17 (6 of 6 replicates).

With GFSLNSYGIS | VIYSDGRRTFYADSVK | GRVAGTFDG the result was 0.44 (6 of 6 replicates). Variant GFPLNEYGIS | VIYSDGRRTFYTDSVK | GRFAGTFDS gave 0.09 (1 of 6 replicates). Variant GFSLNSYGIS | VIYSDGRRTFYSDSVK | GRAAVTFDS gave nd (0 of 6 replicates). Variant GFTLKSHGIS | VIYSDGFRTFYGDSVK | GRAAGTGDS gave 1.34 (1 of 6 replicates). With KFTLNSYGIS | VIYSDGRRTAYSDSVK | IRAAGTFMS the result was 0.71 (3 of 6 replicates).

Variant GFTLNSYGIS | VIYSDGYRTFYGDSVK | GYAAGTFDS showed nd (0 of 6 replicates). With GFTLDSYGIS | VIYSDGRRTFYEDSVK | GRHAGTFDS the result was 1.74 (6 of 6 replicates). For GFDLNSYGIS | VIYSDGRRTFYVDDVK | GQAAGTFDF, the assay gave 0.94 (6 of 6 replicates). Variant GFHLNSYGIS | VIYSDGRRTFYHDSVK | GQEAGTFDS gave 0.63 (6 of 6 replicates). For GFTLLSYGIS | VIYSDGRRTFYGDSVK | GRAAGWFSS, the assay gave nd (0 of 6 replicates).

With GFSLNQYGIS | VIYSDGRRTFYVDSVK | GRTAGTFDS the result was 0.62 (6 of 6 replicates). For GFTLDSYGIS | VDYSDGRRTFYGDSVK | GRAAGTALS, the assay gave nd (0 of 6 replicates). Variant GFNLNSYGIS | VIYSDGMRTFYGDSVK | GRQAGTFDS gave 1.55 (6 of 6 replicates). Variant GFTLNSYGIS | VIYRDGRRTAYGDSVK | GRAAGTFDS showed nd (0 of 6 replicates). Variant GFTLNEYGIS | VIYSDGRRTFYMDSVK | GRTAGTFDS gave 0.51 (6 of 6 replicates).

Variant GSTLNEYGIS | VIYSDGRRTFYTDSVK | GRTAGTFDS showed 1.18 (6 of 6 replicates). For GFELNMYGIS | VIYSDGRRTFYGDSVK | GREAGTFDT, the assay gave 0.59 (5 of 6 replicates). Variant GFNLNSFGIS | VIYSDGARTFYGDSVK | GRAAGTFDS gave nd (0 of 6 replicates). For GFTLNSYGIS | VIYSDGRRTFYGDSVK | GMAAGTFDS, the assay gave 2.29 (1 of 6 replicates). Variant GFTLNSYGIS | VMYSDGRRTFYGDSVR | GREAGTFDS gave 1.02 (6 of 6 replicates).

For GFSLNSYGIS | VIYSDGRRTFYGDSVK | GREAGTFDK, the assay gave -0.09 (6 of 6 replicates). Variant YFQLNEYGIS | VIYSDGRRTFYGDSVK | GRTAGTFDT showed 2.39 (1 of 6 replicates). Variant GFALNSYGIS | VIYSDGRRTFYIDSVK | GRAAGQFDS gave nd (0 of 6 replicates). With GFDLNSYGIS | VIYSDGRRTFYGDDVK | GQAAGTFDS the result was 0.44 (6 of 6 replicates). For GFTLNSYGSS | VIYSDGYRTFYSDSVK | GRAAGTFDS, the assay gave 1.02 (1 of 6 replicates).

For GFDNNSYGIS | VIYSDGRRTFYGDSVK | GRAAGTFDS, the assay gave 2.11 (1 of 6 replicates). Variant GFTLNSYGIS | VIYSDGERTFYHDSVK | GRAAGTFDS showed 0.75 (12 of 12 replicates). Variant GFTLNNYGIS | VIYSDGRRTFYSDSVK | GQLAGTFDS gave 0.44 (6 of 6 replicates). With GFTLNEYGIS | VIYSDGRRTFYGDSVK | GKQAGTFDS the result was -0.55 (6 of 6 replicates). For GHTLNSYGIS | VIYSDGRRTFYGDSVK | GRAIGTFDS, the assay gave 2.48 (1 of 6 replicates).

With GFTLNDYGIS | VIYSDGRVTFYGDSVK | GLAALCFIS the result was nd (0 of 6 replicates). For GFSLNSYGIS | VIYSDGRRTFYGDSVK | GRAACTFDS, the assay gave nd (0 of 6 replicates). With GFELNSYGIS | VIYSDGRRTFYADDVK | GRAAGTFDS the result was 0.31 (6 of 6 replicates). Variant GFTLNSYGIS | VIYSDGRRTFYGDSVK | GRTAGRFDS showed 1.89 (2 of 6 replicates). Variant GFTKNSYGIS | VIYADGRRTFYKDSVK | GRAAGTNTS showed nd (0 of 6 replicates).

With GFSLNSYGIS | VIYSDGRRTFYQDQVK | GQTAGTFDS the result was 1.01 (4 of 6 replicates). For GFTLNSYGIS | VIYSDGRRTFYGDSVK | IRAAGTSIS, the assay gave nd (0 of 6 replicates). For GFTLNSYGIS | VIYSDGRRTFYGNDVK | GRETGTMDS, the assay gave nd (0 of 6 replicates). For GFSLNSYGIS | VIYSDGRRTFYQDSVK | GEVAGTFDS, the assay gave 0.14 (6 of 6 replicates). For GFSLNSYGIS | VIYSDGRRTFYGDRVK | GQAAGTFDL, the assay gave 1.15 (6 of 6 replicates).

A sequence that the file lists under several names has all its replicates pooled. Background: pairings of all heavy chain designs with three empty control strains gave a value in 1% of cases (median 2.08, 5th percentile 0.84). Values in that range, when seen in few replicates, are hard to tell from nonspecific mating. Of ten entries with the parent sequence, four were seen in most replicates (averages 0.34 to 2.37), three in one and three in none, so single entries are noisy. Values of this round are not directly comparable with the first-round values of the same sequences.